Values quoted from earlier work as cited in US20220175776A1 (Frequency Therapeutics, Inc., priority 2019, published 2022).

The chains behind the UniProt entries cited, without tags or fusion partners.
UniProt O75530, whole entry: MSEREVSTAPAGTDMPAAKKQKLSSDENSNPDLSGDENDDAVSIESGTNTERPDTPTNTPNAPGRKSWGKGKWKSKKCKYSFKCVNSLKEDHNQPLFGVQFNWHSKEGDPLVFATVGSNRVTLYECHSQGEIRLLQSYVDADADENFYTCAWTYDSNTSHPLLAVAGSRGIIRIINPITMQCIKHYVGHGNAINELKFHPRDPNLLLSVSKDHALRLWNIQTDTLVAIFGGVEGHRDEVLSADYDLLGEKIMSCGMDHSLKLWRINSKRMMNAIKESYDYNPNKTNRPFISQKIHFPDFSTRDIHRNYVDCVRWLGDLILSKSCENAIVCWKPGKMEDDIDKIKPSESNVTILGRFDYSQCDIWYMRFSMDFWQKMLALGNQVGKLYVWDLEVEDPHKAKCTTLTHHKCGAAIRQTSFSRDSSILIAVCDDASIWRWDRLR
UniProt Q15910, whole entry: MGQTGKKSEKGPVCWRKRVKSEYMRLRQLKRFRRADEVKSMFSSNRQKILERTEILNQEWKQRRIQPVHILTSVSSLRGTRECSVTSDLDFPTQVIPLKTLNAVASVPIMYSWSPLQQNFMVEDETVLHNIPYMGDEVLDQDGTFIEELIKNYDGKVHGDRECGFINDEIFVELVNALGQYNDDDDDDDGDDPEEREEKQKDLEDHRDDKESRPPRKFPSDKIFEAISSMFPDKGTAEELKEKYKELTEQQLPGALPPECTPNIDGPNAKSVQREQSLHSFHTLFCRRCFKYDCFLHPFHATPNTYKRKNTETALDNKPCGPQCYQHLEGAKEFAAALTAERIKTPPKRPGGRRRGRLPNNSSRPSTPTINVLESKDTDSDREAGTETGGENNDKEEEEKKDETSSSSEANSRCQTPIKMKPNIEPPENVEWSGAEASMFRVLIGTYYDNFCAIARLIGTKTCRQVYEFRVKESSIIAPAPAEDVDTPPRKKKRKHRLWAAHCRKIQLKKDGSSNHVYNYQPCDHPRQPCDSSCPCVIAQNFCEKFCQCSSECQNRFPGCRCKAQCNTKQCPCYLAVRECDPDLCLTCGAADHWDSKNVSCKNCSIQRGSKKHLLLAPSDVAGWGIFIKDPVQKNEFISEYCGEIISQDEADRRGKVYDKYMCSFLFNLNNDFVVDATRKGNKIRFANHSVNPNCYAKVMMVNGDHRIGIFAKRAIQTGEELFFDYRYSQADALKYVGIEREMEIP

Target: EZH2 (Homo sapiens, UniProt O75530+Q15910)
Details: Table 7; EED inhibitors; read-out: pKi or IC50 (converted); cited from earlier work

Which IC50 does the source give for `COc1ccc(CCN2CCC(Nc3nc4ccccc4n3Cc3ccc(F)cc3)CC2)cc1` [Astemizole] here?
The IC50 was 94 µM.
